One test relates to Human skMC. Description: cAMP response in primary human skeletal muscle cells (differentiated skeletal myotubes). Particulars: read-out: Primary cells.
The subject of another test is Rat cardiomyocytes. Description: cAMP response in primary rat cardiomyocytes. Conditions: read-out: Primary cells.
In a further test the test system is Rat skMC. Nature of the test: cAMP response in primary rat skeletal muscle cells. Conditions: read-out: Primary cells, differentiated skeletal myotubes.

SMILES strings stand for the structures.

With `COc1ccc(CC(C)NCC(O)c2ccc(O)c(NC=O)c2)cc1` (stereo not drawn), the figures for the EC50 in the test on Human skMC, with Rat cardiomyocytes and in the test with Rat skMC were 0.2 nM, 2.9 nM and 0.9 nM, respectively.

For the origin of these results see patent publication EP2890687B1, “SALTS OF BENZOTHIAZOLONE COMPOUND AS BETA-2-ADRENOCEPTOR AGONIST” (priority 2012, dated 2014).
